The chains behind the UniProt entries cited, without tags or fusion partners. Residues count along the entry.
UniProt P01375, 77-233 limits assumed: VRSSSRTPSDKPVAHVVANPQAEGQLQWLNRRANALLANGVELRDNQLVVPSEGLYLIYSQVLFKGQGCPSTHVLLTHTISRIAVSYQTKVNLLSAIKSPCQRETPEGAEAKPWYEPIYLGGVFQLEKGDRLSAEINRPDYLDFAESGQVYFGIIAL

According to patent US20110123543A1 (MATHILDA AND TERENCE KENNEDY INSTITUTE OF RHEUMATOLOGY TRUST, published 2011):

Biological target: T1, recombinant human TNFα (rhTNF, Dainippon, Osaka, Japan) (human, UniProt P01375 77-233)
T1 construct: also called rhTNFα; hTNFα
Assay: Scatchard analysis; direct binding of 125I-labelled antibody to rhTNFα immobilized in a 96-well plate

B1: murine monoclonal antibody (mAb) A2 (antibody, V domains shown)
VH: EVKLEESGGGLVQPGGSMKLSCVASGFIFSNHWMNWVRQSPEKGLEWVAEIRSKSINSATHYAESVKGRFTISRDDSKSAVYLQMTDLRTEDTGVYYCSRNYYGSTYDYWGQGTTLTVS
VL: DILLTQSPAILSVSPGERVSFSCRASQFVGSSIHWYQQRTNGSPRLLIKYASESMSGIPSRFSGSGSGTDFTLSINTVESEDIADYYCQQSHSWPFTFGSGTNLEVK
- Ka: 5e+08 M⁻¹
